Laboratory results taken from patent publication US6838450B2, “Drug complex” (Daiichi Pharmaceutical Co., LTD, priority 1996, dated 2005).

Key:
[1] = Pharmacokinetics in Meth A tumor-bearing mice; assay type: in vivo, mouse; details: single administration, 10 mg/kg calculated as the drug compound; FIG. 24
Experimental: Meth A tumor-bearing mice were prepared according to a similar manner to that of Example 11, the drug complex of Example 15 was given as single administration in a similar manner to that of Example 12 (10 mg/kg: calculated as the drug compound), and the change of the drug complex concentration in various tissues was determined.

[2] = test system: mouse fibrosarcoma Meth A cells; assay: Antitumor activity, Meth A tumor-bearing mice, single administration; assay type: in vivo
Experimental: Meth A tumor-bearing mice (6 mice per group) were prepared according to a similar manner to that of Example 11 and the antitumor activity was compared to that obtained by single administration of the drug complexes of Examples 8 and 9 once on day 7. As a result, the degree of the antitumor activity was as follows: (Polysaccharide derivative)-Gly-Gly-Phe-Gly-NH—A′>(Polysaccharide derivative)-Gly-Gly-Gly-Phe-NH—A′>the drug compound, per se.
Meth A tumor-bearing mice (6 mice per group) were prepared according to a similar manner to that of Example 11 and the antitumor activity of the drug complex of Example 15 was examined by single administration in a similar manner to that of Example 12.
Meth A tumor-bearing mice (6 mice per group) were prepared according to a similar manner to that of Example 11, and the antitumor activity of the drug complex of Example 41 was examined in the cases of single administration in a similar manner to that of Example 12, and its antitumor activity was compared to that of the drug compound, per se. […]
Meth A tumor-bearing mice (6 mice per group) were prepared according to a similar manner to that of Example 11, and antitumor activity of the drug complex of Example 44 was examined according to a similar method to that of Example 12 by single administration, and its antitumor activity was compared to that of the drug compound (Doxorubicin), per se.

| Substance | tumor selectivity against liver and small intestine [1] | Numbers of died mice/mice used ([2]; Example 61, 5 mg/kg calculated based on the drug compound) | Numbers of died mice/mice used ([2]; Example 61, 10 mg/kg calculated based on the drug compound) | Numbers of died mice/mice used ([2]; Example 61, 20 mg/kg calculated based on the drug compound) | Numbers of died mice/mice used ([2]; Example 61, 40 mg/kg calculated based on the drug compound) |
| --- | --- | --- | --- | --- | --- |
| carboxymethyldextran polyalcohol-Gly-Gly-Phe-Gly-NH—A′ (A—NH2=DX-8951) [Example 15] | high |  |  |  |  |
| carboxymethyldextran polyalcohol-Gly-Gly-Phe-Gly-DXR [Example 44] |  | 0/6 | 0/6 | 0/6 | 0/6 |
